Our source for the IC50 values is US9604998B2, “Inhibitors of the renal outer medullary potassium channel” (MERCK SHARP & DOHME CORP., priority 2013, dated 2017).

Chains of the proteins cited; added tags and fusions are not shown.
UniProt P48048, whole entry, species assumed: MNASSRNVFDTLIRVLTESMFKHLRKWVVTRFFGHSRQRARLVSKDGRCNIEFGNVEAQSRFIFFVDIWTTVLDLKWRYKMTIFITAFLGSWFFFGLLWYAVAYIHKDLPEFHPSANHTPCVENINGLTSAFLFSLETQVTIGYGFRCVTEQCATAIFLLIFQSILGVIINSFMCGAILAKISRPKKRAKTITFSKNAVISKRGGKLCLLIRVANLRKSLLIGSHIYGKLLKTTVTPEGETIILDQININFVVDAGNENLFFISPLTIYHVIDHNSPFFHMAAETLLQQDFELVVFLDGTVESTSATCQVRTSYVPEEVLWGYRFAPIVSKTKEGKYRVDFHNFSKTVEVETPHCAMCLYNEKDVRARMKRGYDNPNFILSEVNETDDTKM

One experiment concerns the target hROMK (hKir1.1) (Homo sapiens (Human), UniProt P48048). The experiment can be described thus: Thallium Flux Assay (ROMK channel functional thallium flux, FLIPR-Tetra). It counts as cell-based. To be noted: HEK293 cells stably expressing hROMK (hKir1.1). How it is done:
HEK293 cells stably expressing hROMK (hKir1.1) were grown at 37° C. in a 10% CO2 humidified incubator in complete growth media: Dulbecco's Modified Eagle Medium supplemented with non-essential amino acids, Penicillin/Streptomycin/Glutamine, G418 and FBS. At >80% confluency, aspirate the media from the flask and rinse with 10 mL Calcium/Magnesium-free PBS. […] To dislodge the cell, gently bang the side of the flask with your hand. Triturate the cells completely and then transfer the cells to 25 mL complete media. Centrifuge at 1,500 rpm for 6 min followed by resuspension in complete growth media and determine cell concentration. […] Under ideal growth conditions and appropriate tissue culture practices, this cell line is stable for 40-45 passages.
Compound Buffer (per microplate): 20 mL Probenecid/Assay Buffer; 0.3 mM ouabain (10 mM ouabain in water can be stored in amber bottle/aluminum foil at room temperature); Test compound
Stimulant Buffer (prepared at 5× final concentration in 1× FluxOR™ Chloride-Free Buffer): 7.5 mM Thallium sulfate and […] (to give a final assay concentration of 3 mM Thallium/0.3 mM Potassium). Store at 4° C. when not in use. If kept sterile, this solution is good for months.
The ROMK channel functional thallium flux assay is performed in 384 wells, using the FLIPR-Tetra instrument. HEK-hKir1.1 cells are seeded in Poly-D-Lysine microplates and kept in a 37° C.-10% CO2 incubator overnight. On the day of the experiment, the growth media is replaced with the FluxOR™ reagent loading buffer and incubated, protected from light, at ambient temperature (23-25° C.) for 90 min. The loading buffer is replaced with assay buffer±test compound followed by 30 min incubation at ambient temperature, where the Thallium/Potassium stimulant is added to the microplate.
1. Seed HEK-hKir1.1 cells (50 μl at 20,000 cells/well) in 384-well PDL coated Microplates
2. Allow cells to adhere overnight in humidified 37° C./10% CO2 incubator
3. Completely remove cell growth media from microplate and replace with 25 μl loading buffer
4. Incubate Microplate at room temperature, protected form light, for 90 min
5. Remove loading buffer and replace with 25 μl 1× Assay Buffer±test compound.
6. Incubate microplate at room temperature, protected from light, for 30 min
7. […] Excitation=400 nm, Emission=460 & 580 nm. Collect data for ˜10 min.
The fluorescence intensity of wells containing 3 μM of a standard control ROMK inhibitor of the present invention is used to define the ROMK-sensitive component of thallium flux. Fluorescence in the presence of test compounds is normalized to control values to provide % fluorescence change.

The target in the next experiment is Kir1.1 (ROMK1) (Homo sapiens (Human), UniProt P48048). The experiment can be described thus: Electrophysiology Assay (whole cell voltage clamp, IonWorks Quattro). It counts as cell-based. To be noted: Chinese hamster ovary cells stably expressing Kir1.1; block during voltage step to 0 mV. How it is done: Chinese hamster ovary cells stably expressing Kir1.1 channels were maintained in T-75 flasks in cell culture media in a humidified 10% CO2 incubator at 37° C. Prior to an experiment, Kir1.1 expression was induced by overnight incubation with 1 mM sodium butyrate. […] After centrifugation, the cell pellet was resuspended in approximately 4.0 mL of bath solution and placed in the IonWorks instrument. The intracellular solution consisted of (in mM): 80 K gluconate, 40 KCl, 20 KF, 3.2 MgCl2, 3 EGTA, 5 Hepes, pH 7.4. Electrical access to the cytoplasm was achieved by perforation in 0.13 mg/mL amphotericin B for 4 min. […] Voltage protocols and current recordings were performed using the IonWorks HT software/hardware system. Currents were sampled at 1 kHz. No correction for liquid junction potentials was used. The test pulse, consisting of a 100 ms step to 0 mV from a holding potential of −70 mV, followed by a 100 ms voltage ramp from −70 mV to +70 mV, was applied before and after a 6 min compound incubation period. Test compounds were prepared by diluting DMSO stock solutions into the bath solution at 3× the final concentration and placed in the instrument in 96-well polypropylene plates. Current amplitudes were measured using the IonWorks software.
In general terms: Patch clamp records ionic current or voltage across a cell membrane.

pIC50: −log10 of the molar value. Counter-ions that a name gives are not always drawn.

`COc1c(C(O)CN2CCN3C[C@@H](c4ccc5c(c4C)COC5=O)OC[C@H]3C2)ccc(C#N)c1F` (single isomer, unassigned) [Example 41]: the figures for the pIC50 on hROMK (hKir1.1) and against Kir1.1 (ROMK1) were 6.64 and 6.85, respectively.

In the case of `Cc1c([C@@H]2CN3CCN(C[C@H](O)c4ccc5c(c4C)COC5=O)C[C@H]3CO2)ccc(F)c1C#N` [Example 5, (3R,9aS)-3-(3-cyano-4-fluoro-2-methylphenyl)-8-[(2R)-2-hydroxy-2-(4-methyl-1-oxo-1,3-dihydro-2-benzofuran-5-yl)ethyl]octahydropyrazino[2,1-c][1,4]oxazin-5-ium trifluoroacetate], the pIC50 (in general, the IC50 on a negative log10 scale, so that one unit is a factor of ten) was 6.55 against hROMK (hKir1.1) and 7.00 against Kir1.1 (ROMK1).

On hROMK (hKir1.1), `Cc1c([C@H]2CN3CCN(C[C@H](O)c4ccc5c(c4C)COC5=O)C[C@H]3CO2)ccc(F)c1C#N` [Example 6, (3S,9aS)-3-(3-cyano-4-fluoro-2-methylphenyl)-8-[(2R)-2-hydroxy-2-(4-methyl-1-oxo-1,3-dihydro-2-benzofuran-5-yl)ethyl]octahydropyrazino[2,1-c][1,4]oxazin-5-ium trifluoroacetate] gave a pIC50 of 6.72.

On to `Cc1c([C@H]2CN3CCN(C[C@H](O)c4ccc5c(c4C)COC5=O)C[C@@H]3CO2)ccc(F)c1C#N` [Example 7, (3S,9aR)-3-(3-cyano-4-fluoro-2-methylphenyl)-8-[(2R)-2-hydroxy-2-(4-methyl-1-oxo-1,3-dihydro-2-benzofuran-5-yl)ethyl]octahydropyrazino[2,1-c][1,4]oxazin-5-ium chloride], for which the pIC50 against hROMK (hKir1.1) is 6.54; at Kir1.1 (ROMK1), 6.96.

As to `Cc1c([C@@H]2CN3CCN(C[C@H](O)c4ccc5c(c4C)COC5=O)C[C@@H]3CO2)ccc(F)c1C#N` [Example 8, (3R,9aR)-3-(3-cyano-4-fluoro-2-methylphenyl)-8-[(2R)-2-hydroxy-2-(4-methyl-1-oxo-1,3-dihydro-2-benzofuran-5-yl)ethyl]octahydropyrazino[2,1-c][1,4]oxazin-5-ium chloride], on hROMK (hKir1.1), the pIC50 is 6.47.

`COc1c(C(O)CN2CCN3C[C@@H](c4ccc5c(c4C)COC5=O)OC[C@H]3C2)ccc(C#N)c1F` (stereo partly drawn) [Example 33, (3R,9aR)-8-[2-(4-cyano-3-fluoro-2-methoxyphenyl)-2-hydroxyethyl]-3-(4-methyl-1-oxo-1,3-dihydro-2-benzofuran-5-yl)octahydropyrazino[2,1-c][1,4]oxazin-5-ium chloride]: the pIC50 against hROMK (hKir1.1) was 6.22; on Kir1.1 (ROMK1), 6.77.

`COc1c(C(O)CN2CCN3C[C@@H](c4ccc5c(c4C)COC5=O)OC[C@@H]3C2)ccc(C#N)c1F` (stereo partly drawn) [Example 34, (3R,9aS)-8-[2-(4-cyano-3-fluoro-2-methoxyphenyl)-2-hydroxyethyl]-3-(4-methyl-1-oxo-1,3-dihydro-2-benzofuran-5-yl)octahydropyrazino[2,1-c][1,4]oxazin-5-ium chloride] showed a pIC50 against Kir1.1 (ROMK1) of 6.82.

In the case of `COc1c(C(O)CN2CCN3C[C@H](c4ccc5c(c4C)COC5=O)OC[C@@H]3C2)ccc(C#N)c1F` (stereo partly drawn) [Example 35, (3S,9aS)-8-[2-(4-cyano-3-fluoro-2-methoxyphenyl)-2-hydroxyethyl]-3-(4-methyl-1-oxo-1,3-dihydro-2-benzofuran-5-yl)octahydropyrazino[2,1-c][1,4]oxazin-5-ium chloride], the pIC50 against hROMK (hKir1.1) is 6.57; against Kir1.1 (ROMK1) it was 6.89.

On hROMK (hKir1.1), `COc1c(C(O)CN2CCN3C[C@@H](c4ccc5c(c4C)COC5=O)OC[C@@H]3C2)ccc(C#N)c1F` (stereo partly drawn) [Example 39, (3R,9aS)-8-[2-(4-cyano-3-fluoro-2-methoxyphenyl)-2-hydroxyethyl]-3-(4-methyl-1-oxo-1,3-dihydro-2-benzofuran-5-yl)octahydropyrazino[2,1-c][1,4]oxazin-5-ium chloride] had a pIC50 of 6.52.

As for `COc1c(C(O)CN2CCN3C[C@H](c4ccc5c(c4C)COC5=O)OC[C@@H]3C2)ccc(C#N)c1F` (stereo partly drawn) [Example 40, (3S,9aS)-8-[2-(4-cyano-3-fluoro-2-methoxyphenyl)-2-hydroxyethyl]-3-(4-methyl-1-oxo-1,3-dihydro-2-benzofuran-5-yl)octahydropyrazino[2,1-c][1,4]oxazin-5-ium chloride], the pIC50 was 6.59 against hROMK (hKir1.1) and 6.96 at Kir1.1 (ROMK1).
